From article PMC5467147, “Identification of a Peptide for Systemic Brain Delivery of a Morpholino Oligonucleotide in Mouse Models of Spinal Muscular Atrophy” (Nucleic Acid Therapeutics, 2017)
No end group written: not given here. Dmd exon‑23 PMO = 25-mer Dmd exon-23 PMO conjugated to the peptide C-terminus

By UniProt entry, the sequences of proteins in these tests, tags left out. Where a name states a change or a piece, a line headed by the entry shows the natural chain unless it says otherwise.
UniProt P02649: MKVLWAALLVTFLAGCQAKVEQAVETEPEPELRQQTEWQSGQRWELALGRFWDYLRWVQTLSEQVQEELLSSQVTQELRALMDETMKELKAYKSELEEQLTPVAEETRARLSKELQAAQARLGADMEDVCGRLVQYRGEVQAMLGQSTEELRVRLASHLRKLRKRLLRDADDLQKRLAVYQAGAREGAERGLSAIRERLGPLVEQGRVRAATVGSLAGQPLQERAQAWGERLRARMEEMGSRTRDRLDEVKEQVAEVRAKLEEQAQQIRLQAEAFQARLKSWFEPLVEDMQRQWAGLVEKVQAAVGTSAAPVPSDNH

System: Dmd pre-mRNA exon 23 in H2K mdx myotubes
Assay: Mouse exon skipping mdx cell assay (DMD exon-23 skipping, nested RT-PCR)
Details: P-PMO (25-mer Dmd PMO) 1 and 5 μM, 4 h serum-free Opti-MEM then 20 h, at least three independent experiments

ApoE (141–150)-PMO: ApoE (141–150) peptide conjugated by its C-terminus to the 25-mer Dmd exon-23 PMO (LRKLRKRLLR-{Dmd exon‑23 PMO}; also: C-terminal conjugate to 25-mer Dmd exon-23 PMO; UniProt P02649 159-168, looked up, fragment)
exon-23 skipping activity compared with naked PMO: highest exon-skipping activity in mdx cells that was statistically greater than that for PMO alone
